# Data taken from US8840891 (RSR, dated 2014).
# Tests used:
# Assay in all cases: cell-based or functional assay
# [1] = biological target: wild type human TSHR (human) (UniProt P16473)
# [2] = biological target: TSHR with Thr104 mutated to Alanine (human) (UniProt P16473)
# [3] = biological target: wild type human TSHR (human) (UniProt P16473); remark: listed apart in the source
# [4] = biological target: TSHR with Lys183 mutated to Alanine (human) (UniProt P16473)
# [5] = biological target: TSHR with Arg80 mutated to Alanine (human) (UniProt P16473)
# [6] = biological target: wild type human TSHR (human) (UniProt P16473); remark: listed apart in the source
# [7] = biological target: wild type human TSHR (human) (UniProt P16473); remark: listed apart in the source
# [8] = biological target: TSHR with Arg80 mutated to Aspartic acid (human) (UniProt P16473)
# [9] = biological target: TSHR with Arg255 mutated to Aspartic acid (human) (UniProt P16473)
# [10] = biological target: wild type human TSHR (human) (UniProt P16473); remark: listed apart in the source
# [11] = biological target: wild type human TSHR (human) (UniProt P16473); remark: listed apart in the source
# [12] = biological target: TSHR with Asp151 mutated to Arginine (human) (UniProt P16473)
# [13] = biological target: wild type human TSHR (human) (UniProt P16473); remark: listed apart in the source
# [14] = biological target: human TSHR Asp203Ala, expressed in CHO cells (human) (UniProt P16473)
# [15] = biological target: human TSHR (wild type) expressed in CHO cells (human) (UniProt P16473)
# [16] = biological target: TSHR with Lys58 mutated to Alanine (human) (UniProt P16473)
# [17] = biological target: human TSHR with Asp276 mutated to Alanine, expressed in CHO cells (human) (UniProt P16473)
# [18] = biological target: wild type human TSHR (human) (UniProt P16473); remark: listed apart in the source
# [19] = biological target: TSHR with Gln235 mutated to Alanine (human) (UniProt P16473)
# [20] = biological target: TSHR with Ser281 mutated to Alanine (human) (UniProt P16473)
# [21] = biological target: wild type human TSHR (human) (UniProt P16473); remark: listed apart in the source
# [22] = biological target: wild type human TSHR (human) (UniProt P16473); remark: listed apart in the source
# [23] = biological target: TSHR with Phe134 mutated to Alanine (human) (UniProt P16473)
# [24] = biological target: wild type human TSHR (human) (UniProt P16473); remark: listed apart in the source
# [25] = biological target: TSHR with Arg109 mutated to Alanine (human) (UniProt P16473)
# [26] = biological target: wild type human TSHR (human) (UniProt P16473); remark: listed apart in the source
# [27] = biological target: TSHR with Lys129 mutated to Alanine (human) (UniProt P16473)
# [28] = biological target: TSHR with Trp258 mutated to Alanine (human) (UniProt P16473)
# [29] = biological target: wild type human TSHR (human) (UniProt P16473); remark: listed apart in the source
# [30] = biological target: TSHR with Tyr82 mutated to Alanine (human) (UniProt P16473)
# [31] = biological target: wild type human TSHR (human) (UniProt P16473); remark: listed apart in the source
# [32] = biological target: wild type human TSHR (human) (UniProt P16473); remark: listed apart in the source
# [33] = biological target: TSHR with Ile60 mutated to Alanine (human) (UniProt P16473)
# [34] = biological target: wild type human TSHR (human) (UniProt P16473); remark: listed apart in the source
# [35] = biological target: TSHR with Asp151 mutated to Alanine (human) (UniProt P16473)
# [36] = biological target: wild type human TSHR (human) (UniProt P16473); remark: listed apart in the source
# [37] = biological target: TSHR with Arg255 mutated to Alanine (human) (UniProt P16473)
# [38] = biological target: TSHR with Lys183 mutated to Aspartic acid (human) (UniProt P16473)
# [39] = biological target: wild type human TSHR (human) (UniProt P16473); remark: listed apart in the source
substance,measurement,setting,value
porcine TSH (from UniProt P01219 25-120; P01224 21-132) (ligand),cyclic AMP; TSH 3 ng/mL only (fmol/cell well),[1],11300
same,Mutated/wild type (%); TSH only,[2],126%
same,cyclic AMP; TSH 3 ng/mL only (fmol/cell well),[2],14200
same,cyclic AMP; TSH 3 ng/mL only (fmol/cell well),[3],22400
same,Mutated/wild type (%); TSH only,[4],90%
same,cyclic AMP; TSH 3 ng/mL only (fmol/cell well),[4],20200
same,Mutated/wild type (%); TSH only,[5],104%
same,cyclic AMP; TSH 3 ng/mL only (fmol/cell well),[5],12900
same,cyclic AMP; TSH 3 ng/mL only (fmol/cell well),[6],12500
same,cyclic AMP; TSH 3 ng/mL only (fmol/cell well),[7],13600
same,Mutated/wild type (%); TSH only,[8],143%
same,cyclic AMP; TSH 3 ng/mL only (fmol/cell well),[8],19400
same,Mutated/wild type (%); TSH only,[9],103%
same,cyclic AMP; TSH 3 ng/mL only (fmol/cell well),[9],18100
same,cyclic AMP; TSH 3 ng/mL only (fmol/cell well),[10],17500
same,cyclic AMP; TSH 3 ng/mL only (fmol/cell well),[11],11100
same,Mutated/wild type (%); TSH only,[12],180%
same,cyclic AMP; TSH 3 ng/mL only (fmol/cell well),[12],20000
same,cyclic AMP; TSH 3 ng/mL only (fmol/cell well),[13],10700
same,cyclic AMP concentration; pTSH 3 ng/mL alone (fmol/cell well),[14],7590
same,Cyclic AMP produced; TSH only (pTSH 3 ng/mL); Experiment 1 (fmol/cell well),[15],17500
same,Cyclic AMP produced; TSH only (pTSH 3 ng/mL); Experiment 2 (fmol/cell well),[15],13900
same,cyclic AMP concentration; pTSH 3 ng/mL alone (fmol/cell well),[15],9360
same,cyclic AMP production; pTSH 3 ng/mL only (fmol/cell well),[15],12300
same,cyclic AMP; Example 1; TSH 3 ng/mL only (fmol/cell well),[15],18600
same,cyclic AMP; Example 2; TSH 3 ng/mL only (fmol/cell well),[15],19400
same,cyclic AMP; pTSH (3 ng/mL) only (fmol/cell well),[15],19000
same,Mutated/wild type (%); TSH only,[16],123%
same,cyclic AMP; TSH 3 ng/mL only (fmol/cell well),[16],13200
same,Cyclic AMP produced; TSH only (pTSH 3 ng/mL); Experiment 1 (fmol/cell well),[17],22400
same,Cyclic AMP produced; TSH only (pTSH 3 ng/mL); Experiment 2 (fmol/cell well),[17],14600
same,Mutated/wild type (%) of cyclic AMP; TSH only (pTSH 3 ng/mL); Experiment 1,[17],128%
same,Mutated/wild type (%) of cyclic AMP; TSH only (pTSH 3 ng/mL); Experiment 2,[17],106%
same,cyclic AMP; TSH 3 ng/mL only (fmol/cell well),[18],14900
same,Mutated/wild type (%); TSH only,[19],106%
same,cyclic AMP; TSH 3 ng/mL only (fmol/cell well),[19],15800
same,Mutated/wild type (%); TSH only,[20],195%
same,cyclic AMP; TSH 3 ng/mL only (fmol/cell well),[20],26400
same,cyclic AMP; TSH 3 ng/mL only (fmol/cell well),[21],13600
same,cyclic AMP; TSH 3 ng/mL only (fmol/cell well),[22],17600
same,Mutated/wild type (%); TSH only,[23],88%
same,cyclic AMP; TSH 3 ng/mL only (fmol/cell well),[23],15500
same,cyclic AMP; TSH 3 ng/mL only (fmol/cell well),[24],13800
same,Mutated/wild type (%); TSH only,[25],71%
same,cyclic AMP; TSH 3 ng/mL only (fmol/cell well),[25],9770
same,cyclic AMP; TSH 3 ng/mL only (fmol/cell well),[26],15600
same,Mutated/wild type (%); TSH only,[27],99%
same,cyclic AMP; TSH 3 ng/mL only (fmol/cell well),[27],15500
same,Mutated/wild type (%); TSH only,[28],33%
same,cyclic AMP; TSH 3 ng/mL only (fmol/cell well),[28],7100
same,cyclic AMP; TSH 3 ng/mL only (fmol/cell well),[29],21000
same,Mutated/wild type (%); TSH only,[30],121%
same,cyclic AMP; TSH 3 ng/mL only (fmol/cell well),[30],15300
same,cyclic AMP; TSH 3 ng/mL only (fmol/cell well),[31],12700
same,cyclic AMP; TSH 3 ng/mL only (fmol/cell well),[32],18700
same,Mutated/wild type (%); TSH only,[33],123%
same,cyclic AMP; TSH 3 ng/mL only (fmol/cell well),[33],22900
same,cyclic AMP; TSH 3 ng/mL only (fmol/cell well),[34],11300
same,Mutated/wild type (%); TSH only,[35],93%
same,cyclic AMP; TSH 3 ng/mL only (fmol/cell well),[35],10500
same,cyclic AMP; TSH 3 ng/mL only (fmol/cell well),[36],14400
same,Mutated/wild type (%); TSH only,[37],106%
same,cyclic AMP; TSH 3 ng/mL only (fmol/cell well),[37],15200
same,Mutated/wild type (%); TSH only,[38],120%
same,cyclic AMP; TSH 3 ng/mL only (fmol/cell well),[38],17700
same,cyclic AMP; TSH 3 ng/mL only (fmol/cell well),[39],14700

# Where two headings read alike, the source gives them in different places.
